Test results published in US7407934B2, “Methods for regulating postprandial blood glucose” (Amylin Pharmaceuticals, Inc., priority 1993, dated 2008).

Assays:
[1] = system: insulin-stimulated glycogen synthesis in soleus muscle; test: Soleus muscle assay (inhibition of insulin-stimulated glycogen synthesis); format: cell-based, rat
Procedure: Concentrations of peptide dissolved in carrier-free buffers are determined by quantitative amino acid analysis, as described therein. The ability of compounds to act as agonists in this assay is determined by measuring EC50 values. […] Similar results were obtained with other agonist compounds listed above.

amylin receptors = molecular target: T1, amylin receptors (Rattus norvegicus, UniProt P32214); test: Receptor binding assay (competition with 125I Bolton-Hunter rat amylin)
T1 construct: This basal forebrain tissue, containing the nucleus accumbens and surrounding regions, was weighed and homogenized; from tissue; host or cells: rat basal forebrain (nucleus accumbens and surrounding regions) membranes
T1 sequence (P32214 25-516): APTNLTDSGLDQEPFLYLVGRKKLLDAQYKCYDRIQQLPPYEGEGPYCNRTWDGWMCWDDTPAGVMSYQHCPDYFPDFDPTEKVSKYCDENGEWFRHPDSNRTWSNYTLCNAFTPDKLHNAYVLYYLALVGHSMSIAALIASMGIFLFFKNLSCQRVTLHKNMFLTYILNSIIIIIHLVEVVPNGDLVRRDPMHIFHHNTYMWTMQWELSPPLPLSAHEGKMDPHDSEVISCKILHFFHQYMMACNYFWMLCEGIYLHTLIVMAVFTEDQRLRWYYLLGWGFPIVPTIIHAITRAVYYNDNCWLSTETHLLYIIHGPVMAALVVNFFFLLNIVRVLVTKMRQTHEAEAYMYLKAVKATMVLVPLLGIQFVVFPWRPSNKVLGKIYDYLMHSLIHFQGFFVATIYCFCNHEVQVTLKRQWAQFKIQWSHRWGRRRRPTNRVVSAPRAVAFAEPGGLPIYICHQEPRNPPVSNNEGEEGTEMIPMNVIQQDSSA
Excerpt: A preferred source of the membrane preparations used in the assay is the basal foregrain which comprises membranes from the nucleus accumbens and surrounding regions.
Unlabeled peptides were obtained from BACHEM Inc. (Torrance, Calif.) and Peninsula Laboratories (Belmont, Calif.).
Male Sprague-Dawley rats (200-250) grams were sacrificed by decapitation. Brains were removed to cold phosphate-buffered saline (PBS). From the ventral surface, cuts were made rostral to the hypothalamus, bounded laterally by the olfactory tracts and extending at a 45° angle medially from these tracts. This basal forebrain tissue, containing the nucleus accumbens and surrounding regions, was weighed and homogenized in ice-cold 20 mM HEPES buffer (20 mM HEPS acid, pH adjusted to 7.4 with NaOH at 23° C.). […] The final membrane pellet was resuspended in 20 nM HEPES buffer containing 0.2 mM phenylmethylsulfonyl fluoride (PMSF).
Solutions were incubated for 60 minutes at 23° C. […] Filters were washed immediately before filtration with 5 ml cold PBS, and immediately after filtration with 15 ml cold PBS.

Compound	pEC50 [1]	Competition with amylin / receptor binding activity (in words) (amylin receptors)
CC[C@H](C)[C@H](NC(=O)[C@H](C)NC(=O)CNC(=O)[C@H](Cc1ccccc1)NC(=O)[C@H](CC(N)=O)NC(=O)[C@H](CC(N)=O)NC(=O)[C@H](CO)NC(=O)[C@H](CO)NC(=O)[C@H](Cc1c[nH]cn1)NC(=O)[C@@H](NC(=O)[C@H](CC(C)C)NC(=O)[C@H](Cc1ccccc1)NC(=O)[C@H](CC(N)=O)NC(=O)[C@H](C)NC(=O)[C@H](CC(C)C)NC(=O)[C@H](CCCNC(=N)N)NC(=O)[C@H](CCC(N)=O)NC(=O)[C@@H](NC(=O)[C@H](C)NC(=O)[C@@H]1CSSC[C@H](NC(=O)[C@H](C)N)C(=O)N[C@@H](CC(N)=O)C(=O)N[C@@H]([C@@H](C)O)C(=O)N[C@@H](C)C(=O)N[C@@H]([C@@H](C)O)C(=O)N1)[C@@H](C)O)C(C)C)C(=O)N[C@@H](CC(C)C)C(=O)N[C@@H](CO)C(=O)N[C@@H](CO)C(=O)N[C@H](C(=O)N[C@@H](CC(N)=O)C(=O)N[C@H](C(=O)NCC(=O)N[C@@H](CO)C(=O)N[C@@H](CC(N)=O)C(=O)N[C@H](C(=O)N[C@@H](Cc1ccc(O)cc1)C(N)=O)[C@@H](C)O)C(C)C)[C@@H](C)O [^1Ala-h-Amylin]	7.89	–
CC[C@H](C)[C@H](NC(=O)[C@H](C)NC(=O)CNC(=O)[C@H](Cc1ccccc1)NC(=O)[C@H](CC(N)=O)NC(=O)[C@H](CC(N)=O)NC(=O)[C@H](CO)NC(=O)[C@H](CO)NC(=O)[C@H](Cc1c[nH]cn1)NC(=O)[C@@H](NC(=O)[C@H](CC(C)C)NC(=O)[C@H](Cc1ccccc1)NC(=O)[C@H](CC(N)=O)NC(=O)[C@H](C)NC(=O)[C@H](CC(C)C)NC(=O)[C@H](CCCNC(=N)N)NC(=O)[C@H](CCC(N)=O)NC(=O)[C@@H](NC(=O)[C@H](C)NC(=O)[C@@H]1CSSC[C@H](NC(=O)[C@@H](N)CO)C(=O)N[C@@H](CC(N)=O)C(=O)N[C@@H]([C@@H](C)O)C(=O)N[C@@H](C)C(=O)N[C@@H]([C@@H](C)O)C(=O)N1)[C@@H](C)O)C(C)C)C(=O)N[C@@H](CC(C)C)C(=O)N[C@@H](CO)C(=O)N[C@@H](CO)C(=O)N[C@H](C(=O)N[C@@H](CC(N)=O)C(=O)N[C@H](C(=O)NCC(=O)N[C@@H](CO)C(=O)N[C@@H](CC(N)=O)C(=O)N[C@H](C(=O)N[C@@H](Cc1ccc(O)cc1)C(N)=O)[C@@H](C)O)C(C)C)[C@@H](C)O [^1Ser-h-Amylin]	8.06	–
CC[C@H](C)[C@H](NC(=O)[C@@H]1CCCN1C(=O)CNC(=O)[C@H](Cc1ccccc1)NC(=O)[C@H](CC(N)=O)NC(=O)[C@H](CC(N)=O)NC(=O)[C@H](CO)NC(=O)[C@H](CO)NC(=O)[C@H](CCCNC(=N)N)NC(=O)[C@@H](NC(=O)[C@H](CC(C)C)NC(=O)[C@H](Cc1ccccc1)NC(=O)[C@H](CC(N)=O)NC(=O)[C@H](C)NC(=O)[C@H](CC(C)C)NC(=O)[C@H](CCCNC(=N)N)NC(=O)[C@H](CCC(N)=O)NC(=O)[C@@H](NC(=O)[C@H](C)NC(=O)[C@@H]1CSSC[C@H](NC(=O)[C@@H](N)CCCCN)C(=O)N[C@@H](CC(N)=O)C(=O)N[C@@H]([C@@H](C)O)C(=O)N[C@@H](C)C(=O)N[C@@H]([C@@H](C)O)C(=O)N1)[C@@H](C)O)C(C)C)C(=O)N[C@@H](CC(C)C)C(=O)N1CCC[C@H]1C(=O)N1CCC[C@H]1C(=O)N[C@H](C(=O)N[C@@H](CC(N)=O)C(=O)N[C@H](C(=O)NCC(=O)N[C@@H](CO)C(=O)N[C@@H](CC(N)=O)C(=O)N[C@H](C(=O)N[C@@H](Cc1ccc(O)cc1)C(N)=O)[C@@H](C)O)C(C)C)[C@@H](C)O [^18Arg^25,28,29Pro-h-Amylin]	8.90	compete with amylin
CC(C)C[C@H](NC(=O)[C@H](CCCNC(=N)N)NC(=O)[C@H](CCC(N)=O)NC(=O)[C@@H](NC(=O)[C@H](C)NC(=O)[C@@H]1CSSC[C@H](NC(=O)[C@@H](N)CCCCN)C(=O)N[C@@H](CC(N)=O)C(=O)N[C@@H]([C@@H](C)O)C(=O)N[C@@H](C)C(=O)N[C@@H]([C@@H](C)O)C(=O)N1)[C@@H](C)O)C(=O)N[C@@H](C)C(=O)N[C@@H](CC(N)=O)C(=O)N[C@@H](Cc1ccccc1)C(=O)N[C@@H](CC(C)C)C(=O)N[C@H](C(=O)N[C@@H](Cc1c[nH]cn1)C(=O)N[C@@H](CO)C(=O)N[C@@H](CO)C(=O)N[C@@H](CC(N)=O)C(=O)N[C@@H](CC(N)=O)C(=O)N[C@@H](Cc1ccccc1)C(=O)NCC(=O)N1CCC[C@H]1C(=O)N[C@H](C(=O)N[C@@H](CC(C)C)C(=O)N1CCC[C@H]1C(=O)N1CCC[C@H]1C(=O)N[C@H](C(=O)N[C@@H](CC(N)=O)C(=O)N[C@H](C(=O)NCC(=O)N[C@@H](CO)C(=O)N[C@@H](CC(N)=O)C(=O)N[C@H](C(=O)N[C@@H](Cc1ccc(O)cc1)C(N)=O)[C@@H](C)O)C(C)C)[C@@H](C)O)C(C)C)C(C)C [^25Pro^26Val^28,29Pro-h-Amylin]	8.33	compete with amylin
CC[C@H](C)[C@H](NC(=O)[C@H](C)NC(=O)CNC(=O)[C@H](Cc1ccccc1)NC(=O)[C@H](CC(N)=O)NC(=O)[C@H](CC(N)=O)NC(=O)[C@H](CO)NC(=O)[C@H](CO)NC(=O)[C@H](Cc1c[nH]cn1)NC(=O)[C@@H](NC(=O)[C@H](CC(C)C)NC(=O)[C@H](Cc1ccccc1)NC(=O)[C@H](CC(N)=O)NC(=O)[C@H](C)NC(=O)[C@H](CC(C)C)NC(=O)[C@H](CCCNC(=N)N)NC(=O)[C@H](CCC(N)=O)NC(=O)[C@@H](NC(=O)[C@H](C)NC(=O)[C@@H]1CSSC[C@H](NC(=O)[C@@H](N)CCCCN)C(=O)N[C@@H](CC(N)=O)C(=O)N[C@@H]([C@@H](C)O)C(=O)N[C@@H](C)C(=O)N[C@@H]([C@@H](C)O)C(=O)N1)[C@@H](C)O)C(C)C)C(=O)N[C@@H](CC(C)C)C(=O)N[C@@H](CO)C(=O)N1CCC[C@H]1C(=O)N[C@H](C(=O)N[C@@H](CC(N)=O)C(=O)N[C@H](C(=O)NCC(=O)N[C@@H](CO)C(=O)N[C@@H](CC(N)=O)C(=O)N[C@H](C(=O)N[C@@H](Cc1ccc(O)cc1)C(N)=O)[C@@H](C)O)C(C)C)[C@@H](C)O [^29Pro-h-Amylin]	8.43	–

More lines, now with the values ahead:

pEC50 [1]	Competition with amylin / receptor binding activity (in words) (amylin receptors)	Compound
7.88	–	CC[C@H](C)[C@H](NC(=O)[C@@H]1CCCN1C(=O)CNC(=O)[C@H](Cc1ccccc1)NC(=O)[C@H](CC(N)=O)NC(=O)[C@H](CC(N)=O)NC(=O)[C@H](CO)NC(=O)[C@H](CO)NC(=O)[C@H](Cc1c[nH]cn1)NC(=O)[C@@H](NC(=O)[C@H](CC(C)C)NC(=O)[C@H](Cc1ccccc1)NC(=O)[C@H](CC(N)=O)NC(=O)[C@H](C)NC(=O)[C@H](CC(C)C)NC(=O)[C@H](CCCNC(=N)N)NC(=O)[C@H](CCC(N)=O)NC(=O)[C@@H](NC(=O)[C@H](C)NC(=O)[C@@H]1CSSC[C@H](NC(=O)[C@@H](N)CCCCN)C(=O)N[C@@H](CC(N)=O)C(=O)N[C@@H]([C@@H](C)O)C(=O)N[C@@H](C)C(=O)N[C@@H]([C@@H](C)O)C(=O)N1)[C@@H](C)O)C(C)C)C(=O)N[C@@H](CC(C)C)C(=O)N1CCC[C@H]1C(=O)N[C@@H](CO)C(=O)N[C@H](C(=O)N[C@@H](CC(N)=O)C(=O)N[C@H](C(=O)NCC(=O)N[C@@H](CO)C(=O)N[C@@H](CC(N)=O)C(=O)N[C@H](C(=O)N[C@@H](Cc1ccc(O)cc1)C(N)=O)[C@@H](C)O)C(C)C)[C@@H](C)O [^25,28Pro-h-Amylin]
8.11	–	CC[C@H](C)[C@H](NC(=O)[C@@H]1CCCN1C(=O)CNC(=O)[C@H](Cc1ccccc1)NC(=O)[C@H](CC(N)=O)NC(=O)[C@H](CC(N)=O)NC(=O)[C@H](CO)NC(=O)[C@H](CO)NC(=O)[C@H](Cc1c[nH]cn1)NC(=O)[C@@H](NC(=O)[C@H](CC(C)C)NC(=O)[C@H](Cc1ccccc1)NC(=O)[C@H](CC(N)=O)NC(=O)[C@H](C)NC(=O)[C@H](CC(C)C)NC(=O)[C@H](CCCNC(=N)N)NC(=O)[C@H](CCC(N)=O)NC(=O)[C@@H](NC(=O)[C@H](C)NC(=O)[C@@H]1CSSC[C@H](N)C(=O)N[C@@H](CC(N)=O)C(=O)N[C@@H]([C@@H](C)O)C(=O)N[C@@H](C)C(=O)N[C@@H]([C@@H](C)O)C(=O)N1)[C@@H](C)O)C(C)C)C(=O)N[C@@H](CC(C)C)C(=O)N1CCC[C@H]1C(=O)N[C@@H](CO)C(=O)N[C@H](C(=O)N[C@@H](CC(N)=O)C(=O)N[C@H](C(=O)NCC(=O)N[C@@H](CO)C(=O)N[C@@H](CC(N)=O)C(=O)N[C@H](C(=O)N[C@@H](Cc1ccc(O)cc1)C(N)=O)[C@@H](C)O)C(C)C)[C@@H](C)O [des-^1Lys^25,28Pro-h-Amylin]

pEC50: −log10 of the molar value.
